This note sets out measurements from ChEMBL document CHEMBL1148402, “Anti-AIDS agents. 52. Synthesis and anti-HIV activity of hydroxymethyl (3'R,4'R)-3',4'-di-O-(S)-camphanoyl-(+)-cis-khellactone derivatives” (J Med Chem, 2004).

The test system of one series is Rattus norvegicus. The series can be described thus: Clearance in male Sprague-Dawley rats following an intravenous bolus dose at 10-20 mg/kg. Type of series: ADME, organism-based. Particulars: in vivo. In outline: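 Adult male Sprague–Dawley rats (approx. 250 g) dosed iv at 10-20 mg/kg and orally as a suspension at 25 mg/kg. Nine 0.4 mL blood samples taken over 8 h. Plasma levels measured by reversed-phase HPLC with UV (320 nm) and fluorescence (ex 320/em 380 nm) detection. Detection limit approx. 50 ng/mL (UV) and 10 ng/mL (fluorescence) from 0.10 mL plasma. Parameters from noncompartmental analysis; half-life from the terminal log-linear phase; N=3–4 rats.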

Series [1] is described as follows: Therapeutic index (IC50/EC50) was determined. As to conditions: read-out: TI. In outline:
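H9 T-cells (3 × 10^5 cells/mL) in RPMI 1640 with 10% FCS at 37 °C, 5% CO2, infected with HIV-1 IIIB (125 TCID50). Medium replaced on days 1 and 4 post-infection. Supernatant p24 antigen capture read on day 6. EC50 is the concentration suppressing replication by 50%; TI = IC50/EC50. AZT run as positive control. Averages of at least two experiments.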

Turning to `Cc1cc(=O)oc2c3c(ccc12)OC(C)(C)[C@H](OC(=O)C12CCC(C)(C(=O)O1)C2(C)C)[C@@H]3OC(=O)C12CCC(C)(C(=O)O1)C2(C)C` (some centres not stated), in the series with Rattus norvegicus, the CL was determined as 211 L/h/kg. In series [1], the selectivity ratio was 16000.
